# Columns and labels:
# [1] = Dissolution of active salt in base cream
# [2] = In-vitro destruction of mustard gas, effect of added water; details: 0.625 molal KDAMO in MPEG350, two hours
Substance,salt that appears to dissolve ([1]; 1.25 molar in base cream 1),salt that appears to dissolve ([1]; 1.25 molar in base cream 2),salt that appears to dissolve ([1]; 1.25 molar in base cream 3),"effectiveness for destruction of mustard gas ([2]; additions of water at 5%, 10%, and 20%)",effectiveness for destruction of mustard gas retained ([2]; highest addition of water (20%)),solubility in base ([1]; 1.25 molar in base cream 4)
"Potassium 2,3 butanedione monoximate",at least 75%,at least 75%,dissolve completely,decreased monotonically,more than 60%,–
Potassium acetophenone oximate,at least 75%,at least 75%,dissolve completely,–,–,soluble
potassium acetone oximate,at least 75%,at least 75%,dissolve completely,–,–,–

# Reference: patent EP0555208B1, “METAL OXIMATE POLYETHYLENE GLYCOLS CHEMICAL DECONTAMINANT SYSTEM” (dated 1992)
